These are literature values, as cited in US20230285259A1, “METHOD FOR DYEING KERATINOUS MATERIAL, COMPRISING THE USE OF AN ORGANOSILICON COMPOUND, A DERIVATIVE OF ALKYLATED SILANOL, A COLORING COMPOUND AND A POST-TREATMENT AGENT” (Henkel AG & Co. KGaA, priority 2020, published 2023).

The conditions of this series: 25° C.

For the substance “3,4,5,6-tetrachloro-2-(1,4,5,8-tetrabromo-6-hydroxy-3-oxoxanthen-9-yl)benzoic acid [Acid Red 92]”, the solubility in water result was “greater than 10 g/L”.
